# In ChEMBL document CHEMBL3774372, “Design, physico-chemical properties and biological evaluation of some new N-[(phenoxy)alkyl]- and N-{2-[2-(phenoxy)ethoxy]ethyl}aminoalkanols as anticonvulsant agents” (Bioorg Med Chem, 2016):
# Protein sequences, listed by entry. Tags and fused reporters are not part of them. Lines headed by an entry give the natural chain unless they say otherwise; changes in a name come on top.
# UniProt P34975: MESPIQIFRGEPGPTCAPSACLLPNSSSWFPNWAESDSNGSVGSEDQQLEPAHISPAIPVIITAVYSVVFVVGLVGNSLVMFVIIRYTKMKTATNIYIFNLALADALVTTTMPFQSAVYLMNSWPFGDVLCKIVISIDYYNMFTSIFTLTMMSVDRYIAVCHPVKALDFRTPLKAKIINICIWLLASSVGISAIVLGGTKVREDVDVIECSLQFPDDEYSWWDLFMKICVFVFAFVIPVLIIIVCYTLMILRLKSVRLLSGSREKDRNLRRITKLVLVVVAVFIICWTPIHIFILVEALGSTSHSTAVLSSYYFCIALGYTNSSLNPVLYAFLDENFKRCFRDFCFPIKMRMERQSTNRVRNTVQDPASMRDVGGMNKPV
# Molecular target: Kappa-type opioid receptor (Rattus norvegicus, UniProt P34975)
# Test: Displacement of [3H]U 69593 from rat recombinant kappa-type opioid receptor expressed in CHO cells
structure (smiles),measurement,value
CN(C(=O)Cc1ccc(Cl)c(Cl)c1)C1CCCCC1N1CCCC1 (stereo unspecified),pIC50,9.19

# pIC50: −log10 of the molar value.
